ERAP1 HTS inh – ERAP1 (human) enzyme inhibition; recombinant ERAP1, Leu-AMC fluorescence, 60 min; inhibition, % at 10.7 µM; 340,000 compounds, 0.15% hits;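 active means mean replicate inhibition of at least 30%, or all replicates individually reaching that 30% level; inactive means mean below 30% and not every replicate reaching it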;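 further: 0% = neutral control wells and 100% = L-leucinethiol positive control wells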
ARNT-TACC3 inh – disruptors of human ARNT/TACC3 interaction | AlphaScreen His-ARNT PAS-B/GST-TACC3 binding, luminescence; TACC3 fragment carries E629A point mutation | inhibition, % at 9.99 µM | 390,000 compounds, 0.66% hits | Q9Y6A5;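 active means mean inhibition of replicates at least 50% and at least half of replicates each reaching 50%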;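 further: 0% = complete ARNT plus TACC3 wells and 100% = ARNT alone without TACC3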
MLL AF4-AF9 inh – MLL-AF4/AF9 protein interaction inhibition | 350,000 compounds, 0.47% hits | inhibition, % at 10 µM | AlphaScreen, biotin-AF4 peptide binding to FLAG-AF9 | P42568 | AID 651704;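 active means every replicate reaching a set inhibition limit, whatever the replicate mean, cut at about 25% in these data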;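 further: 0% = plate neutral control median and 100% = total signal loss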
Yeast UUG start – alters start codon recognition fidelity in yeast. S. cerevisiae UUG-firefly luciferase reporter, luminescence/redox ratio. AID 602363. activity score, % at 18.7 µM. hit rate 0.13% among 350,000;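 active = replicate mean at a twofold rise or more, about +100% in these data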;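 note: firefly luciferase made from a UUG start codon reports start codon fidelity; reporter light over untreated wells divided by growth signal over untreated wells; some hits fall short of that in this replicate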
E-sel inducer – induces E-selectin expression in human endothelial cells. P16581. HUVEC E-selectin immunofluorescence imaging; normalized: neutral wells 0, TNF-alpha wells 100. activation, % at 7.58 µM. 260,000 compounds, 0.37% hits. AID 686992;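 active means mean E-selectin-positive cell signal at least 10% of the positive control, reached in at least 60% of replicates, without over 20% cell loss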
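Test system: HUVEC | Signal: Immunofluorescence imaging | Read-out: Percent E-selectin-positive cells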
S100A4 MyoIIA – S100A4-myosin IIA interaction inhibition; P26447; S100A4/TAMRA-MyoIIA peptide fluorescence polarization; inhibition, % at 10.7 µM; 360,000 compounds, 0.14% hits;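 active means mean inhibition of at least 70% across replicates, with every replicate also reaching that level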
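System – human S100A4 monomer protein, biochemical binding assay · Buffer or medium – Calcium-containing HEPES buffer, pH 7.2 · Timing – 5 min between mix addition and reading · Also added – TAMRA-labelled myosin IIA heavy-chain peptide probe, 5 nM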
* marks the source's active call; other numbers are inactive results; · = no result given. An excerpt weighted towards active compounds, which were near 1.3% of everything screened.

Screens by letter – A = ERAP1 HTS inh; B = ARNT-TACC3 inh; C = MLL AF4-AF9 inh; D = Yeast UUG start; E = E-sel inducer; F = S100A4 MyoIIA
> C[C@@H]1CN([C@@H](C)CO)C(=O)c2cccc(NC(=O)c3ccncc3)c2O[C@@H]1CN(C)Cc1ccc(C(=O)Nc2ccccc2N)cc1
  A: 0 | B: 16 | C: 5 | D: -6 | E: 11 | F: 3
> C[C@H]1CN([C@@H](C)CO)C(=O)c2cccc(NC(=O)Nc3ccc(F)cc3)c2O[C@@H]1CN(C)C
  A: -1 | B: -1 | C: -1 | D: 4 | E: 0 | F: 2
> Cc1cc(NC(=O)c2ccc(S(=O)(=O)N(C)CC3CCCO3)cc2)no1 (stereo not drawn)
  A: 9 | B: 2 | C: -2 | D: · | E: · | F: -4
> COCc1nnc(NC(=O)c2ccc(S(=O)(=O)N(C)Cc3ccccc3)cc2)o1
  A: 2 | B: 49* | C: 1 | D: -19 | E: · | F: -3
> Cc1nnc(NC(=O)c2ccc3ccccc3c2)o1
  A: · | B: 52* | C: · | D: -31 | E: · | F: ·
> O=C(Nc1nnc(-c2ccco2)o1)c1ccc2ccccc2c1
  A: · | B: -1 | C: · | D: · | E: · | F: ·
> COc1ccc(-c2nnc(NC(=O)c3ccc(S(=O)(=O)N(C)CC4CCCO4)cc3)o2)c(OC)c1 (stereo not drawn)
  A: -2 | B: 45* | C: 1 | D: -28 | E: 1 | F: 6
> COCCN(CCOC)S(=O)(=O)c1ccc(C(=O)Nc2nnc(COC)o2)cc1
  A: 19 | B: 32 | C: 3 | D: · | E: · | F: 2
> CO[C@@H]1CN(C)C(=O)c2ccc(NC(=O)Nc3cccc(F)c3)cc2OC[C@@H](C)N(C(C)=O)C[C@H]1C
  A: · | B: 2 | C: 1 | D: · | E: 0 | F: ·
> Clc1ccc(-c2csc(=Nc3cccnc3)n2CCCn2ccnc2)cc1Cl
  A: 1 | B: 30 | C: 47* | D: · | E: · | F: -5

(list continues)
Screens by letter – A = ERAP1 HTS inh; B = ARNT-TACC3 inh; C = MLL AF4-AF9 inh; D = Yeast UUG start; E = E-sel inducer; F = S100A4 MyoIIA
> Cc1ccc(S(=O)(=O)Nc2cccc3ncccc23)cc1
  A: -1 | B: -8 | C: 0 | D: -14 | E: 1 | F: 3
> Cc1ccc(S(=O)(=O)Nc2cccc3ncccc23)s1
  A: 4 | B: 70* | C: · | D: 0 | E: · | F: -3
> O=C(C1CCC1)N1C[C@@H]2[C@H](c3ccccc31)[C@H](CO)N2C(=O)Nc1cccc(F)c1
  A: -2 | B: 1 | C: 35* | D: 14 | E: 1 | F: 0
> CCCNC(=O)N1[C@@H]2CN(C(=O)c3ccncc3)c3ccccc3[C@@H]2[C@@H]1CO
  A: 4 | B: -9 | C: -2 | D: -1 | E: 0 | F: -6
> O=C(C1CCCC1)N1C[C@@H]2[C@H](c3ccccc31)[C@@H](CO)N2C(=O)c1ccccc1F
  A: -1 | B: · | C: -3 | D: 5 | E: 0 | F: 115*
> C/C=C/c1ccc([C@H]2[C@@H](CO)N(C(=O)Nc3ccccc3F)[C@H]2C#N)cc1
  A: 1 | B: -13 | C: 4 | D: -11 | E: 1 | F: 89*
> CCCNC(=O)N1[C@H](CO)[C@@H]2c3ccccc3N(C(=O)c3ccc(F)cc3)C[C@@H]21
  A: 2 | B: 8 | C: 2 | D: 41 | E: 0 | F: 124*
> C/C=C/c1ccccc1[C@H]1[C@@H](CO)N(C(=O)Nc2ccccc2F)[C@H]1C#N
  A: 1 | B: · | C: 5 | D: · | E: 0 | F: -11
> C[C@@H]1CN([C@@H](C)CO)C(=O)c2cc(NC(=O)NC3CCCCC3)ccc2O[C@@H](C)CCCCO[C@H]1CN(C)CC1CCCCC1
  A: · | B: -4 | C: · | D: 13 | E: 0 | F: ·
> COCC(=O)N1C[C@H]2[C@@H](c3ccccc31)[C@@H](CO)N2C(=O)Nc1ccccc1F
  A: 5 | B: 3 | C: -1 | D: 4 | E: 0 | F: 102*

(cont.)
Screens by letter – A = ERAP1 HTS inh; B = ARNT-TACC3 inh; C = MLL AF4-AF9 inh; D = Yeast UUG start; E = E-sel inducer; F = S100A4 MyoIIA
> O=C(Nc1ccccc1F)N1C[C@@H]2[C@H](c3ccccc31)[C@@H](CO)N2C(=O)C1CCCC1
  A: 0 | B: 32 | C: 1 | D: 8 | E: 0 | F: 129*
> COCC(=O)N1C[C@H]2[C@@H](c3ccccc31)[C@H](CO)N2C(=O)Nc1ccccc1F
  A: 2 | B: -10 | C: -1 | D: 26 | E: 0 | F: 5
> C=CCN1CCc2cc(O)c(O)cc2C(c2ccccc2)C1 (stereo not drawn)
  A: -2 | B: -3 | C: 5 | D: -5 | E: 1 | F: 11
> C=CCN1CCc2c(cc(O)c(O)c2Cl)C(c2ccccc2)C1 (stereo not drawn)
  A: -1 | B: 6 | C: 52* | D: -29 | E: 0 | F: 2
> Cn1c(N=Nc2ccc(N3CCOCC3)cc2)[n+](C)c2ccccc21
  A: 4 | B: 6 | C: 58* | D: 29 | E: -1 | F: -13
> CCc1cccc(NC(=O)C2CCN(S(=O)(=O)c3ccc4[nH]c(=O)ccc4c3)CC2)c1
  A: 7 | B: 0 | C: 40* | D: -9 | E: 20 | F: 2
> Cc1cc(C)cc(NC(=O)C2CCN(S(=O)(=O)c3ccc4[nH]c(=O)ccc4c3)CC2)c1
  A: 5 | B: -4 | C: 3 | D: -8 | E: 0 | F: -1
> CS(=O)(=O)N(CC(=O)N1CCOCC1)c1cccc(Cl)c1
  A: 34* | B: · | C: 0 | D: -35 | E: · | F: -2
> CS(=O)(=O)N(CC(=O)N1CCOCC1)c1ccc(Cl)cc1
  A: -4 | B: -1 | C: -3 | D: -22 | E: 0 | F: -19
> C#CCOCCOCCOCCNc1nc(N2CCN(C(=O)[C@H](CCCCN)n3cc([C@@H](N)C(C)CC)nn3)CC2)nc(N2CCN(C(=O)[C@H](Cc3ccc(O)cc3)n3cc([C@@H](N)CC(C)C)nn3)CC2)n1 (stereo partly drawn)
  A: -10 | B: 30* | C: 30* | D: 28 | E: 0 | F: -3

(listing goes on)
Screens by letter – A = ERAP1 HTS inh; B = ARNT-TACC3 inh; C = MLL AF4-AF9 inh; D = Yeast UUG start; E = E-sel inducer; F = S100A4 MyoIIA
> C#CCOCCOCCOCCNc1nc(N2CCN(C(=O)[C@H](CCCCN)n3cc([C@@H](N)CC(C)C)nn3)CC2)nc(N2CCN(C(=O)[C@H](Cc3cc4ccccc4[nH]3)n3cc([C@@H](N)Cc4ccc(O)cc4)nn3)CC2)n1
  A: · | B: 46* | C: · | D: 8 | E: · | F: ·
> Cc1ccccc1S(=O)(=O)N(C)C[C@@H]1OCc2ccccc2-c2ccccc2C(=O)N([C@@H](C)CO)C[C@@H]1C
  A: 0 | B: 4 | C: 3 | D: · | E: -1 | F: 4
> COc1ccc(OCC(=O)N2CCN(S(=O)(=O)c3ccc(Cl)s3)CC2)cc1
  A: 0 | B: -6 | C: 0 | D: -39 | E: 0 | F: 144*
> CCCOC(=O)C1=C(C)NC2=C(C(=O)CCC2)C1c1ccc(N(C)C)cc1 (stereo not drawn)
  A: · | B: 1 | C: · | D: -12 | E: · | F: ·
> CCOC(=O)C1=C(C)NC2=C(C(=O)CCC2)C1c1ccc(N(C)C)cc1 (stereo not drawn)
  A: · | B: active | C: · | D: · | E: · | F: ·
> Cc1noc(C)c1S(=O)(=O)N(C)C[C@H]1Oc2ccc(NC(=O)NC3CCCCC3)cc2CC(=O)N([C@@H](C)CO)C[C@@H]1C
  A: 0 | B: 21 | C: 0 | D: 8 | E: 3 | F: -2
> CO[C@@H]1CN(C)C(=O)c2cc(NC(=O)C3CC3)ccc2OC[C@@H](C)N(Cc2ccc(F)cc2)C[C@H]1C
  A: -1 | B: -7 | C: 3 | D: 3 | E: 0 | F: -18
> CC[C@@H](C)[C@@H]1CN([C@@H](C)CN2CCC[C@H]2CN2C(N)=NC[C@H]2CC(C)C)C(=N)N1CCc1ccc(Cl)c(Cl)c1
  A: 8 | B: 6 | C: 15 | D: 0 | E: 0 | F: 7
> CCC[C@@H](CN1CCC[C@H]1CN1C(N)=NC[C@H]1CC(C)C)N1C[C@@H]([C@H](C)CC)N(CCc2ccc(Cl)c(Cl)c2)C1=N
  A: 14 | B: 10 | C: 25* | D: 6 | E: 0 | F: 3
